# Test results as given in patent US8084621B2, “3-Pyrrolo[b]cyclohexylene-2-dihydroindolinone derivatives and uses thereof” (Jiangsu Simcere Pharmaceutical R&D Co. Ltd., priority 2006, dated 2011).
# What was measured:
# [1] = tested on: Human Pancreatic Carcinoma Cell Line (BXPC-3); assay: Tumor cell proliferation assay (MTT), BXPC-3; assay type: cell-based; settings: secondary screening, 48 hours
# From the text: (§1) The assay used generally is the blue tetrazolium bromide (MTT) method. […] The amount of formazan can be detected by the microplate reader through the absorption value at 570 nm. The amount of formazan product generated is proportional to the number of living cells in the sample, so the OD value may reflect the number of living cells and the ability of a test drug to inhibit or kill cells. The MTT assay may be used in determining the ability of different compounds of the present invention to inhibit one or more cancer cells proliferation. Similar assays can be designed along the same lines for any cancer cell using techniques well known in the art.
# (§2) The assay used generally is the blue tetrazolium bromide (MTT) method. […] Intracellular purple formazan salt crystals can be solved in DMSO and the absorption value at 570 nm is detected by the microplate reader, then the number of living cells can be detected indirectly. […]
# (§3) 2.3.3 Preliminary screening: The compounds are firstly diluted to 0.1 mol/L with DMSO, and then diluted to three concentrations of 10^−5 mol/L, 10^−6 mol/L and 10^−7 mol/L. Add 20 ul test compounds to the 96 well plate and incubate for 72 hours. […] Each inhibition ratio is calculated, then an average value of three times is taken as the measured value. […] 2.3.5 Reading the plates: read the absorbance A570-A630 with the Infinite M200 microtiter plate reader. […]
# [2] = tested on: Human Colon Cancer Cell Line (HT-29); assay: Tumor cell proliferation assay (MTT), HT29; assay type: cell-based; settings: secondary screening, 48 hours
# From the text: as §1, §2, §3
compound,measurement,setting,value
"CCN(CC)CCNC(=O)c1c(C)[nH]c2c1CCC/C2=C1/C(=O)Nc2ccc(C)cc21 [I-4, N-(2-(diethylamino)ethyl)-2-methyl-7-[1,2-dihydro-5-methyl-2-oxo-3H-indol-(Z)-3-ylidene]-4,5,6,7-tetrahydro-1H-indole-3-carboxamide]",IC50,[1],2430 nM
same,IC50,[2],1730 nM
